In US6635265B1, “Materials and methods useful for the control of insect larvae” (University of Florida Research Foundation, Inc., priority 1999, dated 2003):

Tested on: mosquito larvae
Assay: Feeding TMOF and its analogue peptides to mosquito larvae (LD50)
Assay type: in vivo, Aedes aegypti
Conditions: 100 μl microtiter plates, 7 days, diet of autoclaved yeast (1 mg/ml)
From the text: TMOF can traverse the gut epithelium, enter the hemolymph and bind a gut receptor (Borovsky, D. and F. Mahmood (1995) “Feeding the mosquito Aedes aegypti with TMOF and its analogs; effect on trypsin biosynthesis and egg development,” Regulatory Peptides 57:273-281.; Borovsky, D., C. A. Powell, J. K. Nayar, J. E. Blalock, and T. K. Hayes (1994) “Characterization and localization of mosquito-gut receptors for trypsin modulating oostatic factor using complementary peptide immunochemistry” FASEB J. 8:350-355.). […] This characteristic permits testing of TMOF and its analogs by feeding them to mosquito and other pest larvae. To determine whether truncated TMOF peptides have an effect on larval growth and development, a series of peptides were synthesized and tested by feeding them to mosquito larvae at concentrations of 0.5 to 5.0 mg/ml (Table 1). Individual, newly hatched Aedes aegypti larvae were maintained in separate microtiter wells on a diet of autoclaved yeast (1 mg/ml). The diet was supplemented with TMOF peptides (Table 1). An identical number of larvae which were maintained on yeast served as a control. […] All control groups survived and larval growth and development was normal. Since larvae swallow only a small portion of the yeast particles that adsorbed the peptides, it is assumed that approximately 1 to 20 ng are taken orally at the high concentrations.

Substance	LD50 mM ± S.E.M.
DY: TMOF analogue peptide, SEQ ID NO. 23 (TMOF peptide)	3 3.0 ± 0.8 mM
YD: TMOF analogue peptide, SEQ ID NO. 35 (TMOF peptide)	3 1.24 ± 0.06 mM
